pIC50: −log10 of the molar value. Where only a bound is given, the exact number is not on record here.

Chains of the proteins cited; added tags and fusions are not shown.
UniProt P23977, whole entry: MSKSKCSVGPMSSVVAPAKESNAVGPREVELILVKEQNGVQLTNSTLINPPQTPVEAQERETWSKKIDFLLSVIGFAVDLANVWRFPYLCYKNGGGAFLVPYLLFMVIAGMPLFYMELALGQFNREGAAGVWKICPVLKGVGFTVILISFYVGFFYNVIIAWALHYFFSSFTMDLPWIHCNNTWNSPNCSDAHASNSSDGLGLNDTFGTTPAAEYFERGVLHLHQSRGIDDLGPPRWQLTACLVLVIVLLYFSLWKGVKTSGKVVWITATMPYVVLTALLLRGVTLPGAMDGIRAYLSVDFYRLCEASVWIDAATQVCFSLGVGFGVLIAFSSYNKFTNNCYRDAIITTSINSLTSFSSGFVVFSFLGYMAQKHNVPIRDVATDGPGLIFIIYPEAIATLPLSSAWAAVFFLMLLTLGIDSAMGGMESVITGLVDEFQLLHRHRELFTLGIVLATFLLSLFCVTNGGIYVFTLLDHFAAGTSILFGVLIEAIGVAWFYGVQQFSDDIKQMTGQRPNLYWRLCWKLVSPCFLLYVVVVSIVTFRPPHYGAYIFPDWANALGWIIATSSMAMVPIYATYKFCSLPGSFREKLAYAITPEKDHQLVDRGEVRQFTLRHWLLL
UniProt Q63380, whole entry: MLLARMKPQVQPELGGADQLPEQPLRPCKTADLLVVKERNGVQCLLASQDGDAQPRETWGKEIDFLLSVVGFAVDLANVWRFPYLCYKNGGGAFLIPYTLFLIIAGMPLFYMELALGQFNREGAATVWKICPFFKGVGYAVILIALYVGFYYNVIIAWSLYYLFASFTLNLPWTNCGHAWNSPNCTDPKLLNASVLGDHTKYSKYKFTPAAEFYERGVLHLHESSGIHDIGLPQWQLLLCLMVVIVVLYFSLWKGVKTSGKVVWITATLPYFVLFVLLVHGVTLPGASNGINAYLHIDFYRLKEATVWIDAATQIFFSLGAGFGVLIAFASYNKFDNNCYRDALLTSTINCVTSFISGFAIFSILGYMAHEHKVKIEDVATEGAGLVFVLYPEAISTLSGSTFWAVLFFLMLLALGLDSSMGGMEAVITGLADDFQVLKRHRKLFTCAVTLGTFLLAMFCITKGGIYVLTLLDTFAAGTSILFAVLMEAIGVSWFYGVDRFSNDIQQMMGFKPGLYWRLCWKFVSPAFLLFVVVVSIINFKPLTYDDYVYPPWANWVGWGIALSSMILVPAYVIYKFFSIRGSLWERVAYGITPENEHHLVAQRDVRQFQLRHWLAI

Assay [1] concerns the target Sodium-dependent dopamine transporter (Rattus norvegicus, UniProt P23977). Kind of assay: Inhibition of [3H]dopamine reuptake at rat brain frontal cortex dopamine transporter. The class given is tissue-based. Summed up:
(§1)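 Rat frontal cortex synaptosomes prepared at 4 °C: tissue homogenized in ice-cold 0.32 M sucrose, spun at 1500g for 10 min, and the supernatant spun at 20,000g for 30 min. The pellet was resuspended in buffer and protein measured. Synaptosomes were preincubated with compound 5 min at 37 °C, then given 300 nM [3H]-DA or [3H]-NA for 5 min at 37 °C. Uptake was stopped on ice and samples filtered and washed with artificial cerebral fluid before scintillation counting. Active uptake was taken as the 37 °C minus 0 °C difference.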

A further assay addresses Transporter (Rattus norvegicus, UniProt Q63380). The assay can be described thus: Inhibition of [3H]norepinephrine reuptake at rat brain frontal cortex norepinephrine transporter. Format: tissue-based. Summed up: as §1

Consider `COc1ccc(C(CN(C)C)C2(O)CCCCC2)cc1` (configuration not stated) [VENLAFAXINE], for which the values for the negative-log IC50 (pIC50) (in assay [1]; at Transporter) were below 3.00 and 5.85, respectively.

The record behind these values is ChEMBL document CHEMBL1158499, “Synthesis and antidepressant activity of optical isomers of 2-(4-benzylpiperazin-1-yl)-1-(5-chloro-6-methoxynaphthalen-2-yl) propan-1-ol (SIPI5056)” (Bioorg Med Chem Lett, 2010).
